SMILES strings stand for the structures. This is a selection; strong and weak results do not stand in their true shares. Results filed as inconclusive are left out. The source made the active and inactive calls. The call rests on the fitted dose curve; in most records, active means well fitted curve in the direction sought with a large enough effect in the polarisation (not every such curve was filed as active); inconclusive means small, poorly fitted or top-dose-only effect, or effect the other way, or a change in a side signal; inactive means no such curve, though single readings can be large or run the other way; the % refers to the polarisation.

The assay in a line: qHTS Assay for Inhibitors Targeting the Menin-MLL Interaction in MLL Related Leukemias: Competition With Fluorescein Labeled MLL-derived Peptide. Further: % of control where 0% means no effect. The conditions noted are these: Fluorescence polarization, fluorescein-MLL peptide displacement from menin; at 61.4 µM (top of the series) unless noted.

For the compound `O=[N+]([O-])c1ccc(Nc2ccc(Oc3ccc([N+](=O)[O-])cc3[N+](=O)[O-])cc2)c([N+](=O)[O-])c1`, the FP activity change is inactive: 33.1%. To `CP(=O)(Nc1ccccc1Br)Oc1ccccc1` (stereo unspecified) belongs inactive: -0.494%. Then `COc1ccccc1OP(C)(=O)Nc1ccccc1` (stereo unspecified), with inactive: -3.79%. With `O=P(Nc1ccccn1)(c1cccc2ccccc12)c1cccc2ccccc12`, the FP activity change is inactive: -0.476%. In the case of `Cc1cc(SC(NC=O)C(Cl)(Cl)Cl)ncn1` (stereo unspecified), the FP activity change was inactive: 3.99%.

As to `CCOC(=O)Nc1cccc([As](=O)(O)O)c1`, the FP activity change was inactive: 8.6%. Regarding `CP(=S)(Nn1cnnc1)Oc1ccccc1` (stereo unspecified), the FP activity change is inactive: -0.278%.

On to `Cc1cc(SC(NC(=O)c2ccccc2)C(Cl)(Cl)Cl)nc(C(C)C)n1` (stereo unspecified), for which the FP activity change was inactive: 1%. To `CCCCOc1ccc(C(=O)NCC2(N3CCCCC3)CCCCC2)cc1OC` belongs inactive: 0.335%; to `CCOC(=O)Nc1ccc([As](=O)(O)O)c(O)c1`, inactive: 1.13%.

For `CP(=O)(Nc1ccccn1)Oc1ccc(Cl)cc1` (stereo unspecified), the FP activity change was inactive: 1.3%.

With `CCC(C)N(CC(C)C)C(=S)SC(NC(C)=O)C(Cl)(Cl)Cl` (stereo unspecified), the FP activity change was inactive: 1.1%. Then `CN(C)CCS`, with inactive: -2.06%; and `CCOC(=O)c1ccc(NC(=O)C(C)(CCl)SC)cc1` (stereo unspecified), with inactive: 0.941%; and `CCOC(=O)c1ccc(NP(C)(=O)Oc2ccc(OC)cc2)cc1` (stereo unspecified), with inactive: 0.372%. To `CCOP(C)(=S)SCC(=O)NC(C)C(=O)O` (stereo unspecified) belongs inactive: 0.916%. For `O=C(OC1CN2CCC1CC2)c1cccc([N+](=O)[O-])c1` (stereo unspecified), the FP activity change is inactive: -3.85%. To `O=C(Nc1ccncc1[N+](=O)[O-])c1ccc([N+](=O)[O-])cc1[N+](=O)[O-]` belongs inactive: 23.3%; to `Cc1cc(C)cc(OP(C)(=O)Nc2ccc(SC(F)(F)F)cc2)c1` (stereo unspecified), inactive: 0.892%; to `CCc1ccc(OP(C)(=O)N2CCN(c3ccc([N+](=O)[O-])cc3)CC2)cc1` (stereo unspecified), inactive: -2.43%. To `O=C(COc1ccccc1)OC1CN2CCC1CC2` (stereo unspecified) belongs inactive: -0.57%. Then `CP(=O)(NC(=O)Nc1ccccc1)Oc1ccccc1` (stereo unspecified), with inactive: 0.731%; and `CP(=O)(Oc1ccccc1)OC(c1ccccc1)C(F)(F)F` (stereo unspecified), with inactive: -1.09%; and `Cc1cccc(C)c1OP(C)(=O)Nc1ccc(SC(F)(F)F)cc1` (stereo unspecified), with inactive: -0.617%. On to `CP(=O)(Nc1ccc(SC(F)(F)F)cc1)Oc1ccc(Cl)cc1` (stereo unspecified), for which the FP activity change was inactive: 0.0296%.

Regarding `COP1(=S)c2c(C)nn(CCC#N)c2N=C(c2ccc(F)cc2)N1C` (stereo unspecified), the FP activity change is inactive: 2.43%. `COc1ccc(N/C(=N/P(=O)(N2CCOCC2)N2CCOCC2)N2CCOCC2)cc1`: the FP activity change is inactive: -0.847%. To `COc1cc(I)ccc1[As](=O)(O)O` belongs inactive: -0.682%. To `COc1ccc2nc(NP(=O)(c3ccccc3)c3ccccc3)sc2c1` belongs inactive: -0.343%; to `Cc1cc(=O)[nH]c(N[N+](=O)[O-])n1`, inactive: -0.424%; to `CCN(CC)CCCOC(=O)C(O)(c1ccccc1)c1ccccc1`, inactive: 0.73%. Then `O=C(OC1CN2CCC1CC2)C12CC3CC(CC(C3)C1)C2` (stereo unspecified), with inactive: -0.0327%; and `Cc1c2c(nc3ccccc13)SC(C(Cl)Cl)C2` (stereo unspecified), with inactive: 3.95%; and `Cc1cc(C)cc(OP(C)(N)=O)c1` (stereo unspecified), with inactive: 2.16%. In the case of `O=[N+]([O-])c1cc([N+](=O)[O-])c(-c2ccn[nH]2)s1`, the FP activity change was inactive: -1.74%. Then `COc1ccc(OP(C)(=O)Nc2cccc(F)c2)cc1` (stereo unspecified), with inactive: -2.42%; and `CCN(CC)C(=S)SC(NC=O)C(Cl)(Cl)Cl` (stereo unspecified), with inactive: 2.31%.

With `COc1ccccc1OP(C)(=O)Nc1cc(Cl)ccc1C` (stereo unspecified), the FP activity change is inactive: 1.02%. To `CC(C)NC(=O)NP(=O)(Oc1ccccc1)Oc1ccccc1` belongs inactive: -1.94%; to `Cc1ccc(NP(C)(=O)Oc2ccccc2)c(C)c1` (stereo unspecified), inactive: 6.47%; to `CC(C)c1ccc(OP(=O)(Nc2ccccn2)Oc2ccccc2F)cc1` (stereo unspecified), inactive: 6.77%. Then `COc1ccccc1OP(C)(=O)Nc1ccc(C)cc1` (stereo unspecified), with inactive: -0.152%; and `ClCCSc1nnc(-c2cccnc2)o1`, with inactive: 5.57%.

For the compound `CCOC(=O)c1ccc(NP(C)(=O)Oc2ccccc2)cc1` (stereo unspecified), the FP activity change was inactive: 6.98%. Consider `Cc1ccc2nc3c(c(C)c2c1)CC(C(Cl)Cl)S3` (stereo unspecified), for which the FP activity change was inactive: 1.96%. Then `O=[N+]([O-])c1ccc2c(c1)C=Nc1ccccc1O2`, with inactive: -2.17%; and `O=C(O)C(O)(c1ccccc1)c1ccccc1`, with inactive: 1.13%. On to `Cc1cccc(C)c1OP(C)(N)=O` (stereo unspecified), for which the FP activity change was inactive: 1.14%. To `CC(C)(C)c1ccc(OP(C)(=O)Nc2ccc(SC(F)(F)F)cc2)cc1` (stereo unspecified) belongs inactive: 1.39%; to `Cc1ccc(OP(=O)(Nc2ccc([N+](=O)[O-])cn2)Oc2ccc(C)cc2)cc1`, inactive: 3.52%. Then `O=C(O)C1(O)c2ccccc2-c2ccccc21`, with inactive: 1.04%.
